Results reported in PMC7723054.
The other results are listed elsewhere or left out.

T1: LIN28A (human?, UniProt Q9H9Z2 1-209)
T1 sequence: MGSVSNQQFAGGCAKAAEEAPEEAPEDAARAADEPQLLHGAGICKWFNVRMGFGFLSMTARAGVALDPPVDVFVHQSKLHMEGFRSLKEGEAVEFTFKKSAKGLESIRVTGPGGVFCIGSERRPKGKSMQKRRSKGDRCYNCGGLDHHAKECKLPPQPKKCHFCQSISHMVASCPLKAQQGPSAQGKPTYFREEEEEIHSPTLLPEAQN

T2: CIRBP (Homo sapiens, UniProt Q14011 1-172)
T2 sequence: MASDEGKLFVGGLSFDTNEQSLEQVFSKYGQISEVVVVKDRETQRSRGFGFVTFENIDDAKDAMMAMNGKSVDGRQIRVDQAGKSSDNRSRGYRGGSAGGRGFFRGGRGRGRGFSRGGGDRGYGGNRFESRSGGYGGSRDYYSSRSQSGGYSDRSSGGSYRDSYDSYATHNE

T3: DHX36 (Homo sapiens, UniProt Q9H2U1 1-1008)
T3 sequence: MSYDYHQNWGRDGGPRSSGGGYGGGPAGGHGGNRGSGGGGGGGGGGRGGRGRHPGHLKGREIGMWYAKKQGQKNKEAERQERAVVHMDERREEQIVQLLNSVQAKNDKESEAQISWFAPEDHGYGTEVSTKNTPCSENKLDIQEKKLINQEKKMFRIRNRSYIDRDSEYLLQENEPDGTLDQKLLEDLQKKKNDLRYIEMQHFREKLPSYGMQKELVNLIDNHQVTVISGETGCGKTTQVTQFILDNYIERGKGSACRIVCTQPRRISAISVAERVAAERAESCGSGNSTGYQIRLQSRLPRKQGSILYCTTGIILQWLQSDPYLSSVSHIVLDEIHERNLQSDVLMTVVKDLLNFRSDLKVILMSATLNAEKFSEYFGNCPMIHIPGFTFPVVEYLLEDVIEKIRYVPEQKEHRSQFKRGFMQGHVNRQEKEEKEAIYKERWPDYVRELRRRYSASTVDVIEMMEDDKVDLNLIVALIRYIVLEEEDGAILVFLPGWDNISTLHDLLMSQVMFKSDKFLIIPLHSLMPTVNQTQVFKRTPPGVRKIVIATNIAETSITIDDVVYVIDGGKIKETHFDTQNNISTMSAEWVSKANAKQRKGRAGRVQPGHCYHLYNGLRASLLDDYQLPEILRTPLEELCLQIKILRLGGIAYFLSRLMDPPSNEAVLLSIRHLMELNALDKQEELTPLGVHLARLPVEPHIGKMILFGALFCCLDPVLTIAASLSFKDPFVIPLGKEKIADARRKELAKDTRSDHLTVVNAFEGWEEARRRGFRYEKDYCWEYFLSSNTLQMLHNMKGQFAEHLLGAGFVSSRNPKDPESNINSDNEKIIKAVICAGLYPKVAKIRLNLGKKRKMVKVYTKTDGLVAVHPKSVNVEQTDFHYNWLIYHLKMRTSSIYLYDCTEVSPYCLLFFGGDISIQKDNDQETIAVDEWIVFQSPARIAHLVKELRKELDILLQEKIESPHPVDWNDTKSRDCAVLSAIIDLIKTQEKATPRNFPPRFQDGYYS


What was measured:
Test in all cases: FOREST: bead pull-down of RNA structure library v1, barcode microarray; U1A/LIN28A: 20 mM HEPES pH 7.5, 80 mM KCl, 20 mM NaCl, 10% glycerol, 2 mM DTT, 0.1 ug/uL BSA, 4 C; BG4/CIRBP/DHX36: 10 mM Tris-HCl pH 7.5, 100 mM KCl (or LiCl),; high values mean tight binding
LIN28A = target: T1, LIN28A
CIRBP = target: T2, CIRBP
DHX36 = target: T3, DHX36

| Binder | binding signal (LIN28A) [z-score] | binding signal (CIRBP) [z-score] | binding signal (DHX36) [z-score] |
| --- | --- | --- | --- |
| hsa-mir-1255b-1 (structured_RNA) RNA: GGGACGCUCUCGCCGAGGUAUAGAGUUUGGUGUACGAAGUUUCAGCGGUUUCUUAAAAUGGAAUCUGCUGAAGCUUCGUGCAC | -0.544 | -0.0489 | -0.151 |
| hsa-mir-628 (structured_RNA) RNA: GGGAAAAGAGGGCACCAGAUGUAUUGUCGGUGUACGAAGUUUCAGCUAGAGGGUAAAAUUAAUAACCUUCUAGCUGAAGCUUCGUGCAC | -0.504 | 0.577 | -0.014 |
| hsa-mir-320b-1 (structured_RNA) RNA: GGGAACAGGACUGAACCUUCAAUACAGGGGUGUACGAAGUUUCAGCAAUCCCUCUCUUUCUAGUUCUUCCUAGAGUGAGGAAAAGCUGAAGCUUCGUGCAC | -0.54 | 1.61 | 0.946 |
| hsa-mir-133a-1 (structured_RNA) RNA: GGGAAUGUCACGGAGGGAGCUCAACUACGGUGUACGAAGUUUCAGCCAAAUCGCCUCUUCAAUGGAUUUGGCUGAAGCUUCGUGCAC | -0.515 | 0.175 | 0.461 |
| hsa-mir-625 (structured_RNA) RNA: GGGAACACUGCAGCCGAAUCGAACAGACGGUGUACGAAGUUUCAGCAGUCCUGUAAUUAGAUCUCAGGACUGCUGAAGCUUCGUGCAC | -0.519 | 1.3 | -0.722 |
| hsa-mir-548at (structured_RNA) RNA: GGGACGUGUCCAAUAAUAUCGCCUCGCAGGUGUACGAAGUUUCAGCUUUGGCUGCCAAAAGAAAUGGCCAAAGCUGAAGCUUCGUGCAC | -0.515 | -0.139 | -1.08 |
| hsa-mir-3689a (structured_RNA) RNA: GGGACUUUUGAGCAGGGAGUACGUAUAAGGUGUACGAAGUUUCAGCCUGGGAGGUGUGAUCCUGUGCUUCCUGGGCUGAAGCUUCGUGCAC | -0.51 | 0.169 | -0.277 |
| hsa-mir-1290 (structured_RNA) RNA: GGGAACCUGUAGCUGCUACGGAUAGCGGGGUGUACGAAGUUUCAGCUUCAGAUUUUGGAACAUUUCGGAUUUUGGAGCUGAAGCUUCGUGCAC | -0.537 | 0.529 | -0.736 |
| hsa-mir-576 (structured_RNA) RNA: GGGAAGGUAAACCCAGUCGUGAUCCCGUGGUGUACGAAGUUUCAGCUCUUUGGUAAUAAGGUUUGGCAAAGAGCUGAAGCUUCGUGCAC | -0.523 | -1.17 | -0.177 |
| hsa-mir-4777 (structured_RNA) RNA: GGGAACAGUCAGCGGACUCGGUAACCAAGGUGUACGAAGUUUCAGCAGAUAUAUAUAUACCUCAUAUGUAUAUGGUAUACGCUGAAGCUUCGUGCAC | -0.536 | 0.207 | -0.471 |
| hsa-mir-876 (structured_RNA) RNA: GGGAACUGAGUGGCUAUGUCGAACUCGAGGUGUACGAAGUUUCAGCACCAUAUCUAAGCUAAUGUGGUGGUGCUGAAGCUUCGUGCAC | -0.512 | -1.51 | -1.37 |
| hsa-mir-4504 (structured_RNA) RNA: GGGAAAUAAGCAAGGAGCCCGUAUGUUAGGUGUACGAAGUUUCAGCCAUUUGUGGCAUGGACCAUUUGUGGCUGAAGCUUCGUGCAC | -0.519 | 1.02 | -0.0311 |
| hsa-mir-4289 (structured_RNA) RNA: GGGACCAGACUGCGCGUGUAAAUCGAAUGGUGUACGAAGUUUCAGCAUCAGGCAGUUUCCUGGCUGAAGCUUCGUGCAC | -0.542 | 0.0829 | -1.2 |
| hsa-mir-548k (structured_RNA) RNA: GGGAAUGACGUUGUGGUUCAGCUGCCACGGUGUACGAAGUUUCAGCUGCUUUACUUUUAAUGGCAGCUGAAGCUUCGUGCAC | -0.519 | -0.4 | -0.915 |
| hsa-mir-3115 (structured_RNA) RNA: GGGAACCGCAAUCGAGCAAAGCUAACUGGGUGUACGAAGUUUCAGCUGGUGGUGAAUUCAUGAGUCGCCAGCUGAAGCUUCGUGCAC | -0.503 | 1.71 | 0.993 |
| hsa-mir-3936 (structured_RNA) RNA: GGGAAAUUCACACGCUGACGGCGAUUUAGGUGUACGAAGUUUCAGCAAAUCCGUGUUUGGACGCUUCUGGUAGCUGAAGCUUCGUGCAC | -0.543 | 0.355 | -0.714 |
| hsa-mir-4755 (structured_RNA) RNA: GGGAGUACAGAGUGUAGCUAGCUCGCCCGGUGUACGAAGUUUCAGCGGCUUUGGCAUCUAUGAAAGCCGCUGAAGCUUCGUGCAC | -0.517 | -1.87 | -0.725 |
| hsa-mir-3917 (structured_RNA) RNA: GGGAAUUAAUGCCGGUAUCCUCUAGCCGGGUGUACGAAGUUUCAGCUGGUCAGGCGGCUGCUGAAGCUUCGUGCAC | -0.548 | -0.672 | 0.197 |
| hsa-mir-548ay (structured_RNA) RNA: GGGACUAUCUGCAGAAGGGAUCUAGUUGGGUGUACGAAGUUUCAGCUUUUGCAUUUAAAGUAAUGGCCAAAGCUGAAGCUUCGUGCAC | -0.52 | 0.151 | 0.548 |
| hsa-mir-7846 (structured_RNA) RNA: GGGAAAACUCUAGAGGUCGAAACUCCGAGGUGUACGAAGUUUCAGCGCUGGGGCGCGGGCUUUCGCUUUCAGUCGAGGGCUAGCGAGCGCAGCGCUGAAGCUUCGUGCAC | -0.517 | -0.299 | 0.44 |
| hsa-mir-548ae-2 (structured_RNA) RNA: GGGAGCAACGGCAAGACCCACGUACUAGGGUGUACGAAGUUUCAGCUUUGUCAUUUAAAAGUAAUGGCAAAGCUGAAGCUUCGUGCAC | -0.521 | -0.342 | 0.0348 |
| hsa-mir-3658 (structured_RNA) RNA: GGGAAGGUUCGCCUGCUUGGUAGCUGAUGGUGUACGAAGUUUCAGCAGAUGAAAUGCCUUUGAUUUGCUGAAGCUUCGUGCAC | -0.529 | -0.135 | -0.549 |
| hsa-mir-6863 (structured_RNA) RNA: GGGACAUUAGGAAGGAACCGCUUGAAAUGGUGUACGAAGUUUCAGCUUAAUGAGGCCAUAGAGCUGAAGCUUCGUGCAC | -0.532 | -0.501 | 0.81 |
| NEAT1_ParasoR_ID18 (structured_RNA) RNA: GGGAAAAUCAUGCGUGAUCCACCUAUGCGGUGUACGAAGUUUCAGCUGGAACUGGGGUAAAACUGCGUAGUGGCUGCAGCUGCCUGUCCAGCUGAAGCUUCGUGCAC | -0.518 | 0.00105 | -0.847 |
| hsa-mir-875 (structured_RNA) RNA: GGGAACAGGGAACCUUAUACUAAGUUUGGGUGUACGAAGUUUCAGCCAGGUGUUCUUAAAAUCACCUGGCUGAAGCUUCGUGCAC | -0.54 | -0.308 | -0.814 |
| hsa-mir-6822 (structured_RNA) RNA: GGGACAACAAGAGUGUAGCCCCAGAAACGGUGUACGAAGUUUCAGCGCUUCCGCUCUGCAGAGGCGCUGAAGCUUCGUGCAC | -0.547 | -0.959 | 0.147 |
